Laboratory results: patent US8314256B2, “Modulators of ATP-binding cassette transporters” (Vertex Pharmaceuticals Incorporated, priority 2005, dated 2012)

The chains behind the UniProt entries cited, without tags or fusion partners. A line that says so, or that is headed by a name, gives the form on record, which may keep a tag or linker.
UniProt P13569, with tags, fused parts or gaps DEL508-508: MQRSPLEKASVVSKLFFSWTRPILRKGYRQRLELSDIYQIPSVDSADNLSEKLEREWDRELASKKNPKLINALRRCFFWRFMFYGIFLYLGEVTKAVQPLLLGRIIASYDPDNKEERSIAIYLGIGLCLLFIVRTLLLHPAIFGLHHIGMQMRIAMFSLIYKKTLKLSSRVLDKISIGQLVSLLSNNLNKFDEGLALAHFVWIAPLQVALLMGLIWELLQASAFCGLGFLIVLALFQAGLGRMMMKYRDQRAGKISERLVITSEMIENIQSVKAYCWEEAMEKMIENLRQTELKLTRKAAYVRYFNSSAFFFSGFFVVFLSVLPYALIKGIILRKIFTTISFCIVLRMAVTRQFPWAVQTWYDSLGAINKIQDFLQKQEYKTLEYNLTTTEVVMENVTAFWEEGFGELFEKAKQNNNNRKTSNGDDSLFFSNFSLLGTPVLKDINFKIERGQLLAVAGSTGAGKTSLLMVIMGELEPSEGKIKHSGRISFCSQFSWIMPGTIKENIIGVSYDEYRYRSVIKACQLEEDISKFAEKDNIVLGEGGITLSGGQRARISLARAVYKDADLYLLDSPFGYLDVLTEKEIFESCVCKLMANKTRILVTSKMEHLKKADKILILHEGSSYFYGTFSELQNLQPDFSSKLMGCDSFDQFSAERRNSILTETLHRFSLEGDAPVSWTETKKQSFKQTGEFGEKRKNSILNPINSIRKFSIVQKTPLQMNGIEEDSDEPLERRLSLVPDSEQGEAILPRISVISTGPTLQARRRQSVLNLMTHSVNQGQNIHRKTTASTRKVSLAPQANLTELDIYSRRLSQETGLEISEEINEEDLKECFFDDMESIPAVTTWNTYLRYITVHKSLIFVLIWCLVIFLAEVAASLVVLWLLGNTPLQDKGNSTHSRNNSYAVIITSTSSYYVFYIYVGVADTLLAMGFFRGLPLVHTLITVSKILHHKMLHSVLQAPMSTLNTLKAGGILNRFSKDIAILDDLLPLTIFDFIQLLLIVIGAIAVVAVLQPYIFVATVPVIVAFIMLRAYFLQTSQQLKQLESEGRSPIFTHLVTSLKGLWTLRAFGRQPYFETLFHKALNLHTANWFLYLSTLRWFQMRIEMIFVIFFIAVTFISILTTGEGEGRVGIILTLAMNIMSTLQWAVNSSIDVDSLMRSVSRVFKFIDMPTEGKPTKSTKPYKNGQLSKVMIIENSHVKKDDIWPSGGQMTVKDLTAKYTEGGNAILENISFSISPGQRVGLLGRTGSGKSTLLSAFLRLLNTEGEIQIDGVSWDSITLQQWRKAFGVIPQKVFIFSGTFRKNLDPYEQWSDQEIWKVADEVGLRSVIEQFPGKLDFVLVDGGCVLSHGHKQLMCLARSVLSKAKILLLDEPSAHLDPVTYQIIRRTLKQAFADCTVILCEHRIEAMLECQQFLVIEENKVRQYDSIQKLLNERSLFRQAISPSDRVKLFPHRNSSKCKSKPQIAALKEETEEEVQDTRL

Molecular target: ΔF508-CFTR (Homo sapiens, UniProt P13569, DEL508-508)
Assay: Membrane potential optical assay of ΔF508-CFTR modulation (Table 3 EC50; the table does not name the assay)
Text: Membrane Potential Optical Methods for Assaying ΔF508-CFTR Modulation Properties of Compounds
The optical membrane potential assay utilized voltage-sensitive FRET sensors described by Gonzalez and Tsien (See, Gonzalez, J. E. and R. Y. Tsien (1995) “Voltage sensing by fluorescence resonance energy transfer in single cells” Biophys J 69(4): 1272-80, and Gonzalez, J. E. and R. Y. Tsien (1997) “Improved indicators of cell membrane potential that use fluorescence resonance energy transfer” Chem Biol 4(4): 269-77) in combination with instrumentation for measuring fluorescence changes such as the Voltage/Ion Probe Reader (VIPR) (See, Gonzalez, J. E., K. Oades, et al. (1999) “Cell-based assays and instrumentation for screening ion-channel targets” Drug Discov Today 4(9): 431-439).
These voltage sensitive assays are based on the change in fluorescence resonant energy transfer (FRET) between the membrane-soluble, voltage-sensitive dye, DiSBAC2(3), and a fluorescent phospholipid, CC2-DMPE, which is attached to the outer leaflet of the plasma membrane and acts as a FRET donor. […] The changes in fluorescence emission were monitored using VIPR II, which is an integrated liquid handler and fluorescent detector designed to conduct cell-based screens in 96- or 384-well microtiter plates. […]

EC50: 1000 to 5000 nM
Compound: CC12CCC(C1)C(C)(C)C2NC(=O)C(=O)c1c[nH]c2ccc(Br)cc12 (stereo not shown)
